{
  "source": "ChEMBL document CHEMBL4665840",
  "about": "“New antibacterial cadiolide analogues active against antibiotic-resistant strains” (Bioorg Med Chem Lett, 2020)",
  "system": "Staphylococcus aureus",
  "settings": "NCTC12493",
  "data": [
    {"sequence": "GENTAMICIN", "values": [
      {"measurement": "MIC", "value": 0.5, "unit": "µg/mL"}
    ]}
  ]
}
